Test results taken from patent US20170176440A1, “METHODS AND COMPOSITIONS FOR EVALUATING BREAST CANCER PATIENTS” (THE BOARD OF REGENTS OF THE UNIVERSITY OF TEXAS SYSTEM, priority 2014, published 2017).

Sequences of proteins named here, by UniProt entry; tags and fusion partners are left off.
UniProt Q92731, whole entry: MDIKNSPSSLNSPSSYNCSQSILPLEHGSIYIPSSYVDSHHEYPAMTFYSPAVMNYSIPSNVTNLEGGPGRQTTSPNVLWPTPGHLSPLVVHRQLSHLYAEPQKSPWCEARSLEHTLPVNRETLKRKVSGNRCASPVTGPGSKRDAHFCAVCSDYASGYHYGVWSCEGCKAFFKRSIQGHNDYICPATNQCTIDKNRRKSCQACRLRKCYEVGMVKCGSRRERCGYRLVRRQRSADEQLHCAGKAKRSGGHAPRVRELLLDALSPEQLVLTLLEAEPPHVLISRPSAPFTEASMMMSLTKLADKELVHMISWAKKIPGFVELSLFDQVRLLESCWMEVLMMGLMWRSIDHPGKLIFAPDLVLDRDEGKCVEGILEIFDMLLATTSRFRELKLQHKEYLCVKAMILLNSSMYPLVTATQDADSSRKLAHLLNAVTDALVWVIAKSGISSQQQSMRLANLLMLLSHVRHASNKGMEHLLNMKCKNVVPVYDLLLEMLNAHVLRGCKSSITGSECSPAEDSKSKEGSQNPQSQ

Target: T1, EYA2-ERβ interaction (Homo sapiens, UniProt Q92731)
T1 construct: made in house; the other protein was 35S-labelled and in vitro translated
Test: Co-IP of endogenous EYA2 and ERβ in MCF7 breast cancer cells
Assay type: cell-based
Conditions: E2 10 nM

EYA2-ERβ interaction (co-IP): enhanced
Structure (SMILES): C[C@]12CC[C@@H]3c4ccc(O)cc4CC[C@H]3[C@@H]1CC[C@@H]2O [E2, 17-β-estradiol]
